How the values were obtained:
[1] = test system: human ovarian cancer OVCAR-3 tumor; test: OVCAR-3 tumor model; conditions: p.o. 5, 10, 15 mg/kg twice daily, 22 days; NOD-SCUD mice; FIG. 3
[2] = test system: human gastric cancer MKN1 tumor; test: MKN1 tumor model; conditions: p.o. 10, 20, 30 mg/kg once daily, 22 days; BALB/c nude mice; FIG. 4

With CC(C)n1nnc2ccc3cnc(Nc4ccc(C(=O)N5CC[C@H](N(C)C)C5)cc4)nc3c21 the “growth inhibitory effect on the OVCAR-3 tumor model” value [1] was “showing a dose-dependent relationship” and the “growth inhibitory effect on the MKN1 tumor model” value [2] was “showing a dose-dependent relationship”.

— patent publication US20260384437A1, “1H-[1,2,3]TRIAZOLO[4,5-H]QUINAZOLINE COMPOUNDS AS PROTEIN KINASE INHIBITORS” (published 2026)
